{
  "source": "PubChem BioAssay AID1885",
  "about": "(Broad Institute, 2009)",
  "note": "The list shows a part of the results, in another mix than the full data. Active and inactive are the calls of the source.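 Rule for the calls: active = mean inhibition across valid replicates above about 55% (limit read from the data); inconclusive = mean below that limit but half or more replicates reach it; inactive = mean below it, under half of replicates reach it.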",
  "data": [
    {"assay": "Trypanosoma cruzi replication blockers in host cells – luminescence, NIH3T3 host cells, primary screen (AID 1885);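 note: signal also drops with host cell toxicity which is not excluded here; 0% = plate median of DMSO wells and 100% = zero luminescence signal; higher percent means less beta-gal luminescence so fewer parasites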", "conditions": "T. cruzi beta-gal in NIH3T3, luminescence, 90 h; active compounds read high; concentration not given here", "summary_of_the_method": "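Material: NIH/3T3 host cells with β-galactosidase reporter T. cruzi; Input: 5,000 host fibroblasts per well; Medium: DMEM, 2% fetal bovine serum; Compound: 50 nL DMSO compound solution per well; Schedule: 3 h host attachment, then at least 90 h co-culture; Detection: luminescent β-galactosidase signal after 60 min lysis.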", "values": [
      {"smiles": "Cc1cc(C)cc(OP(C)(=O)Nc2ccc(C)cc2C)c1", "note": "(stereo not drawn)", "inhibition": "inactive: 6.82%"},
      {"smiles": "CCOC(=O)c1ccc(NP(C)(=O)Oc2cc(C)cc(C)c2)cc1", "note": "(stereo not drawn)", "inhibition": "inactive: 14.4%"},
      {"smiles": "O=C(OC1CN2CCC1CC2)c1ccc(Cl)cc1", "note": "(stereo not drawn)", "inhibition": "inactive: 14.3%"},
      {"smiles": "O=[As](O)(O)c1cccnc1", "inhibition": "inactive: -17.2%"},
      {"smiles": "COc1cc(C(=O)NCC2(N3CCOCC3)CCCCC2)cc(Cl)c1OC(C)C", "inhibition": "inactive: 23.8%"},
      {"smiles": "COc1ccccc1OP(C)(=O)Nc1cccc(Br)c1", "note": "(stereo not drawn)", "inhibition": "inactive: 9.75%"},
      {"smiles": "CS(=O)(=O)c1ccc(Cl)c(NC(=O)COC(=O)C(O)(c2ccccc2)c2ccccc2)c1", "inhibition": "inactive: 0.452%"},
      {"smiles": "CCOP(=O)(Nc1cccc2ccccc12)OCC", "inhibition": "inactive: -15.9%"},
      {"smiles": "Cc1cc(C)cc(OP(C)(=O)Nc2ccccn2)c1", "note": "(stereo not drawn)", "inhibition": "inactive: -12.8%"},
      {"smiles": "CP(=O)(Nc1cccc(Br)c1)Oc1ccccc1", "note": "(stereo not drawn)", "inhibition": "inactive: -9.11%"},
      {"smiles": "Nc1cccc2c([As](=O)(O)O)cccc12", "inhibition": "inactive: 1.52%"},
      {"smiles": "Cc1ccc(C)c(NP(C)(=O)Oc2ccccc2)c1", "note": "(stereo not drawn)", "inhibition": "inactive: -0.545%"},
      {"smiles": "CCCOP(=S)(Nc1nc(N)cc(=O)[nH]1)OCCC", "inhibition": "inactive: 3.65%"},
      {"smiles": "Nc1ccccc1[As](=O)(O)c1ccccc1", "inhibition": "inactive: 5.77%"},
      {"smiles": "O=C(O)COc1ccc([As](=O)(O)O)cc1[N+](=O)[O-]", "inhibition": "inactive: 3.18%"},
      {"smiles": "CCOP1(=S)c2c(C)nn(CCC#N)c2N=C(c2ccccc2F)N1C", "note": "(stereo not drawn)", "inhibition": "inactive: 8.19%"},
      {"smiles": "O=C(O)c1cccc(Nc2c([N+](=O)[O-])cc([N+](=O)[O-])cc2[N+](=O)[O-])c1", "inhibition": "inactive: 4.03%"},
      {"smiles": "O=P(Nc1nccs1)(Oc1ccccc1)Oc1ccccc1", "inhibition": "inactive: -10.2%"},
      {"smiles": "O=P(Nc1nccs1)(c1ccccc1)c1nc2ccccc2s1", "note": "(stereo not drawn)", "inhibition": "inactive: 19.8%"},
      {"smiles": "CS(=O)(=O)c1cc([N+](=O)[O-])c2no[n+]([O-])c2c1", "inhibition": "inactive: -10%"},
      {"smiles": "N#CCCN(C(=O)COC(=O)C(O)(c1ccccc1)c1ccccc1)c1ccc(F)cc1", "inhibition": "inactive: 8.45%"},
      {"smiles": "CN(C(=O)Cc1ccccc1)[C@@H]1CC[C@]2(CCCO2)C[C@H]1N1CCCC1", "inhibition": "inactive: -4.38%"},
      {"smiles": "CCOP1(=S)c2c(C)nn(CCC#N)c2N=C(c2ccc(F)cc2)N1C", "note": "(stereo not drawn)", "inhibition": "inactive: 3.28%"},
      {"smiles": "O=[N+]([O-])c1ccc2c(c1)nnn2O", "inhibition": "inactive: -16.9%"},
      {"smiles": "CN(C)C(=O)c1cc([N+](=O)[O-])cc2c1-c1c(cc([N+](=O)[O-])cc1[N+](=O)[O-])C2=O", "inhibition": "inactive: 47.2%"},
      {"smiles": "CC1=NCCc2c1[nH]c1ccccc21.O=[N+]([O-])c1cc([N+](=O)[O-])c(O)c([N+](=O)[O-])c1", "inhibition": "inactive: -15%"},
      {"smiles": "CN(C(=O)Cc1ccc(Cl)c(Cl)c1)[C@H]1CC[C@@]2(CCCO2)C[C@@H]1N1CCCC1", "inhibition": "inactive: 9.93%"},
      {"smiles": "NC(=O)Nc1ccc([As](=O)(O)O)cc1", "inhibition": "inactive: -24%"}
    ]}
  ]
}
